scFv variants of Ab-14 (heavy chain) against a SARS-CoV-2 spike peptide

Binding partner: SARS-CoV-2 spike HR2 peptide, sequence PDVDLGDISGINAS.

Each scFv is VH, the linker GGGGSGGGGSGGGGS, VL, as in the parent Ab-14, and differs from it in the CDRs of the heavy chain only.
VH: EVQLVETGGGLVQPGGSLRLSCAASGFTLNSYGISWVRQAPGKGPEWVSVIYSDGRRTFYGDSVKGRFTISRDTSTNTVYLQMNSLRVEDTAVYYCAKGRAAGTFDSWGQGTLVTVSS
VL: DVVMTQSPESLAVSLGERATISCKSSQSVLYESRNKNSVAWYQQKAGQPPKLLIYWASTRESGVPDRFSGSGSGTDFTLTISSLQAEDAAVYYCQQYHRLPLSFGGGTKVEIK

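The parent was found by panning a naive human phage display library on the peptide. The variants were designed computationally from a first round of random CDR variants and then made and measured. Several design methods are mixed in this list. In AlphaSeq, yeast of one mating type display the scFv and yeast of the other type display the target. The frequency of each diploid, read from paired DNA barcodes, reflects how well the two displayed proteins bind. A regression on co-assayed BCL2-family reference pairs converts the normalised counts of each replicate to an apparent Kd. The assay was run in six technical replicates.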

Variants are written as CDR1, CDR2 and CDR3 of the heavy chain (limits as in the source). Parent: GFTLNSYGIS, VIYSDGRRTFYGDSVK, GRAAGTFDS. Variants here have at most six changes. Each Kd is an estimate from the mating assay, the geometric mean of the replicates in which the pair was seen; lower is stronger. A pair that was not seen in any replicate is written "no signal"; this usually means weak binding, but a binder can also be missed. Order: sorted from the lowest average up, undetected variants last. The authors' rule: three or more of the six replicates give a measured affinity, fewer mean a poor binder. Of ten entries with the parent sequence, four were seen in most replicates (averages 2.2 nM to 240 nM), three in one and three in none, so single entries are noisy. Empty control strains, which show no peptide, gave a signal in 1% of pairings with all heavy chain designs; the median was 120 nM and 95% of these signals were weaker than 7.0 nM. No background was subtracted. For each scFv, signals with the empty controls are counted beside the result. Some sequences occur more than once in the pool; their replicates are pooled. The range of this assay differs from that of the first round, and the authors advise against merging the two.

- GFTLNNYGIS | VIYSDGKRTFYSDSVK | GKAAGTFDS: 290 pM (6 of 6 replicates; controls 0 of 18)
- GFTLDSYGIS | VIYADGRRTFYGDSVK | GRIAGTFDS: 620 pM (6 of 6 replicates; controls 0 of 18)
- GFDLNSYGIS | VIYSDGRRTFYADSVK | GRMAGTFDS: 660 pM (6 of 6 replicates; controls 1 of 18)
- GFSLNEYGIS | VIYSDGRRTFYVDSVK | GQAAGTFDS: 1.2 nM (6 of 6 replicates; controls 1 of 18)
- GKTLNSYGIS | VIYSDGRRTFYSDSVK | GRAGGTFDS: 1.3 nM (6 of 6 replicates; controls 2 of 18)
- GFDIESYGIS | VIYSDGRRTFYGDSVR | GRAAGTFDS: 1.4 nM (6 of 6 replicates; controls 1 of 18)
- GFTLNSFGIS | VIYSDGRRTAYGDSVK | GRAAQTFDS: 1.5 nM (6 of 6 replicates; controls 0 of 18)
- GFDLNSYGIS | VIYSDGRRTFYKDSVK | GQLAGTFDS: 2.0 nM (6 of 6 replicates; controls 1 of 18)
- GFTLNDYGIS | VIYSDGRRTFYGDSVK | GRQAGTFDS: 2.8 nM (12 of 12 replicates; controls 0 of 36)
- GFSLNEYGIS | VIYSDGRRTFYGDSVK | GRTAGTFDW: 3.7 nM (6 of 6 replicates; controls 0 of 18)
- GFSLNSYGIS | VIYSDGRRTFYGDSVK | GWVAGTFDS: 3.8 nM (6 of 6 replicates; controls 1 of 18)
- GFDLNSYGIS | VIYSDGHRTFYIDSVK | GRAAGTFDS: 4.6 nM (6 of 6 replicates; controls 0 of 18)
- GFTLESYGIS | VIYSDGRRTFYADDVK | GNAAGTFDS: 7.7 nM (6 of 6 replicates; controls 0 of 18)
- GFDLNSYGIS | VIYSDGRRTFYHDSVK | GQLAGTFDS: 8.0 nM (6 of 6 replicates; controls 0 of 18)
- GFTLNSYGIS | VIYSDGRRTFYDDSVK | GQLAGTFDR: 8.5 nM (3 of 6 replicates; controls 0 of 18)
- GFSLNDYGIS | VIYSDGRRTFYSDSVK | GKAAGTFDS: 13 nM (6 of 6 replicates; controls 0 of 18)
- KFSLNDYGIS | VIYSDGRRTFYGDSVK | GWTAGTFDS: 29 nM (6 of 6 replicates; controls 0 of 18)
- GFTLNSYGIS | VIYSDGRRTFYNDSVK | GRVAGTFDS: 43 nM (3 of 6 replicates; controls 2 of 18)
- GFTLNSYGIS | VIYSDGKRTFYGDSVK | GRAAGTFDS: 44 nM (6 of 6 replicates; controls 0 of 18)
- GFTLNSYGIS | VIYSDGRRTFYSDSVK | GRAAGSFDS: 63 nM (5 of 6 replicates; controls 0 of 18)
- KFSLNSYGIS | VIYSDGRRTFYQDSVK | GREAGTFDS: 80 nM (5 of 6 replicates; controls 0 of 18)
- GFTLELYGIS | VIYSDGRRTFYSDSVK | GRAAGRFDS: 110 nM (3 of 6 replicates; controls 1 of 18)
- GFSLNQYGIS | VIYSDGRRTFYSDSVK | GRAAGMFDS: 120 nM (6 of 6 replicates; controls 0 of 18)
- GFLLNEYGIS | VIYSDGRRTFYGDSVK | GQTAGTFDS: 150 nM (6 of 6 replicates; controls 0 of 18)
- GFQLNKYGIS | VIYSDGRRTFYGDSVK | GRHAGTFDS: 330 nM (1 of 6 replicates; controls 0 of 18)
- GFNLNSYGIS | VIYSDGRRTFYIDSVK | GRYAGTFDS: no signal (0 of 6 replicates; controls 0 of 18)
- GFHLNDYGIS | VIYSDGRRTQYIDPVK | GRAAGTFDS: no signal (0 of 6 replicates; controls 0 of 18)
- GFTLNSYGIS | VIYSDGRRTFYSDSVK | GRAAVTFDT: no signal (0 of 6 replicates; controls 0 of 18)
- GFSLNSYGIS | VIYSDGRRTMYGDSVK | GRAGGMFDS: no signal (0 of 6 replicates; controls 0 of 18)
- GFTLKSYGIS | VIYSDGRRTFYGDSVK | GRAAGTFDS: no signal (0 of 6 replicates; controls 0 of 18)
- GFHLNSYGIS | VIYSDGFRVFYGDSVK | GRAYGPFDS: no signal (0 of 6 replicates; controls 1 of 18)
- GFTLNDYGIS | VIYSDGWRTFYGDSVK | GRAAGTFHP: no signal (0 of 6 replicates; controls 0 of 18)
- GFTLNSYGIS | VIYSDGRRTFYGDSVK | GREAGTFDV: no signal (0 of 6 replicates; controls 0 of 18)
- GFTLNDYGYS | VIYSDGRRTQYIDRVK | GRAAGTFDS: no signal (0 of 6 replicates; controls 0 of 18)
- GFTLNDYGIH | VIYSDGRRTFYQDSVK | GAAAGTFDQ: no signal (0 of 6 replicates; controls 0 of 18)
- GFTLNEYGIS | VIYSDGRRTFYSDSVK | GRAAGFFDS: no signal (0 of 6 replicates; controls 1 of 18)
- GFNLNSYGIS | VIYSDGRRTFYGDSVK | NRAAGIFRS: no signal (0 of 6 replicates; controls 0 of 18)
- KFNLNSYGIS | VIYSDGRRTFYHDSVK | GRTAGTFDS: no signal (0 of 6 replicates; controls 1 of 18)
- GHTLNSYGIS | VIYADGRRTFYGDSVK | GYAAGNFDS: no signal (0 of 6 replicates; controls 0 of 18)
- GFTLNEYGIS | VIYSDGRRTFYGDALK | GRAAVTFDQ: no signal (0 of 6 replicates; controls 0 of 18)
- GFTLNDYGIS | VIYSDGRRTFYGDTVK | GNAALTFIS: no signal (0 of 6 replicates; controls 0 of 18)
- GFTLNSYGIH | VIYADGRRTFYIDSVV | GRAWGTFVS: no signal (0 of 6 replicates; controls 0 of 18)
- GFNLNSYGIS | VIYSDGRRTFYGDSVK | GRAIGTFDS: no signal (0 of 6 replicates; controls 0 of 18)
- GFTLNSKGIG | VINSDGRRTFYSDSVK | GRTQGTFDS: no signal (0 of 6 replicates; controls 1 of 18)
- GFTLNMYGIS | VIYSDGRRTFYGDSVK | GRAAHTFDS: no signal (0 of 6 replicates; controls 0 of 18)
- GFELNDYGIS | VIYSDGRRTMYWDSVK | GRAAGTFDS: no signal (0 of 6 replicates; controls 0 of 18)

Again, the first 5 entries without any signal:

{"CDR-H1": "GFNLNSYGIS", "CDR-H2": "VIYSDGRRTFYIDSVK", "CDR-H3": "GRYAGTFDS", "Kd (apparent)": "no signal", "seen in": "0/6", "empty controls": "0/18"}
{"CDR-H1": "GFHLNDYGIS", "CDR-H2": "VIYSDGRRTQYIDPVK", "CDR-H3": "GRAAGTFDS", "Kd (apparent)": "no signal", "seen in": "0/6", "empty controls": "0/18"}
{"CDR-H1": "GFTLNSYGIS", "CDR-H2": "VIYSDGRRTFYSDSVK", "CDR-H3": "GRAAVTFDT", "Kd (apparent)": "no signal", "seen in": "0/6", "empty controls": "0/18"}
{"CDR-H1": "GFSLNSYGIS", "CDR-H2": "VIYSDGRRTMYGDSVK", "CDR-H3": "GRAGGMFDS", "Kd (apparent)": "no signal", "seen in": "0/6", "empty controls": "0/18"}
{"CDR-H1": "GFTLKSYGIS", "CDR-H2": "VIYSDGRRTFYGDSVK", "CDR-H3": "GRAAGTFDS", "Kd (apparent)": "no signal", "seen in": "0/6", "empty controls": "0/18"}

Source: Li et al. 2023 (doi:10.1038/s41467-023-39022-2), MIT Lincoln Laboratory and A-Alpha Bio; data file from the FLAb repository.